One assay deals with human DAT (Homo sapiens, UniProt Q01959). It is filed as cell-based. Particulars: read-out: DAT IC50 (95% CI).
Another assay concerns the target 5‐HT2A receptor (Homo sapiens, UniProt P28223). Particulars: read-out: 5‐HT2A Receptor binding Ki ± SD.
The next assay has as its target 5‐HT1A receptor (Homo sapiens, UniProt P08908). The note with it: read-out: 5‐HT1A Receptor binding Ki ± SD.
A further assay addresses human NET (Homo sapiens, UniProt P23975). The assay is classed as cell-based. The note with it: read-out: NET IC50 (95% CI).
For the next assay, the target named is human SERT (Homo sapiens, UniProt P31645). It is filed as cell-based. Particulars: read-out: SERT IC50 (95% CI).

Chains of the proteins cited; added tags and fusions are not shown.
UniProt Q01959, whole entry: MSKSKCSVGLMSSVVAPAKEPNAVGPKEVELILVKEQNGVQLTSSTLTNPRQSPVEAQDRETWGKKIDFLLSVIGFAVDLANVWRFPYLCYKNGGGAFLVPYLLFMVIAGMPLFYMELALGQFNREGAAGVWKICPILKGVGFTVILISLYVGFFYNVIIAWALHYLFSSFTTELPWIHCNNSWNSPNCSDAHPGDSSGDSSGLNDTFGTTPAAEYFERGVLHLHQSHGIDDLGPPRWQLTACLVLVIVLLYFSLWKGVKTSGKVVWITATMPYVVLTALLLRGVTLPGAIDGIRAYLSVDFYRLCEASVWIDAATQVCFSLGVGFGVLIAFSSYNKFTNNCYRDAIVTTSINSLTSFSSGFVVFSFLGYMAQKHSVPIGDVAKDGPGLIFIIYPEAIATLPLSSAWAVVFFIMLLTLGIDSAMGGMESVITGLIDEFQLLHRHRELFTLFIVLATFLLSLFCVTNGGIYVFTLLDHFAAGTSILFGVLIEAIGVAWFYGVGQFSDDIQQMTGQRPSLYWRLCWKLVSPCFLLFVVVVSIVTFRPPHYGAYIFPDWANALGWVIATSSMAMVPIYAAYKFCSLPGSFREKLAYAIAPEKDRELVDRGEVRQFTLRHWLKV
UniProt P28223, whole entry: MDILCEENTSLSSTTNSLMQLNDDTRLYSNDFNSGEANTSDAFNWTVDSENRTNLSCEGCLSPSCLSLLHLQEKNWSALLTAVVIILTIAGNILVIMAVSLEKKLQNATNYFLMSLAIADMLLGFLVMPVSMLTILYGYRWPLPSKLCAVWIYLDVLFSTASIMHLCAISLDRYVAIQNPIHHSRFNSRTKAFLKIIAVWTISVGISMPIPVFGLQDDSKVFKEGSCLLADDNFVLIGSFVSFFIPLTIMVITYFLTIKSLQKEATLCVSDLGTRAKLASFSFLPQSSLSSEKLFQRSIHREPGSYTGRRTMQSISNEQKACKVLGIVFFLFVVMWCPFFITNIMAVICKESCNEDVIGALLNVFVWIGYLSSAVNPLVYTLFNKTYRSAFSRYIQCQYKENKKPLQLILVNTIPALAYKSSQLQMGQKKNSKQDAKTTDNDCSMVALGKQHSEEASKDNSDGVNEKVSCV
UniProt P08908, whole entry: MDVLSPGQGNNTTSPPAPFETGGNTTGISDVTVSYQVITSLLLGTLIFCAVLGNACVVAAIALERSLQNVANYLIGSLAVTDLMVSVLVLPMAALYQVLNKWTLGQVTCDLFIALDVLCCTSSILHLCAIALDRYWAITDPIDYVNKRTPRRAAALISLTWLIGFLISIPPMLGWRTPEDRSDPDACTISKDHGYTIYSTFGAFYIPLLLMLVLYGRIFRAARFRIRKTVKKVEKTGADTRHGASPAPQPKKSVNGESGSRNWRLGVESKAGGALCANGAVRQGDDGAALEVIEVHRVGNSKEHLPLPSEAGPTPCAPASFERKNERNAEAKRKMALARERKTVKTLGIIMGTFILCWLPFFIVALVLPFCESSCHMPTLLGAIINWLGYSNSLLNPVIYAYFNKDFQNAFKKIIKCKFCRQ
UniProt P23975, whole entry: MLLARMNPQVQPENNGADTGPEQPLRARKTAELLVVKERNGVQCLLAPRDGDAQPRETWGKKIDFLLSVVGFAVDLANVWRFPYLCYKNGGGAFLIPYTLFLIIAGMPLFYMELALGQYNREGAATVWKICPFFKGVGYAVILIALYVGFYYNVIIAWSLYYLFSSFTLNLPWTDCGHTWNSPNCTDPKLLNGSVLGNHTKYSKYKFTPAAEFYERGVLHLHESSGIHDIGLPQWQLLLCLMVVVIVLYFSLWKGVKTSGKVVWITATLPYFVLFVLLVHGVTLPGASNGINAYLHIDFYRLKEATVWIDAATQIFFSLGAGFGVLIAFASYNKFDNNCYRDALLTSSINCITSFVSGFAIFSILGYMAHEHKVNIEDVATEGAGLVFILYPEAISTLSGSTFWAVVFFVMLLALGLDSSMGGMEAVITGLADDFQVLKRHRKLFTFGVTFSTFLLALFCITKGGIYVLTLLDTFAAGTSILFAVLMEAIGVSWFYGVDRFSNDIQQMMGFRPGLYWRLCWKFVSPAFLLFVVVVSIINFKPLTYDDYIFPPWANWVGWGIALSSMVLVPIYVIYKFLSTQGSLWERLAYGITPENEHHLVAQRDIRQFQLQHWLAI
UniProt P31645, whole entry: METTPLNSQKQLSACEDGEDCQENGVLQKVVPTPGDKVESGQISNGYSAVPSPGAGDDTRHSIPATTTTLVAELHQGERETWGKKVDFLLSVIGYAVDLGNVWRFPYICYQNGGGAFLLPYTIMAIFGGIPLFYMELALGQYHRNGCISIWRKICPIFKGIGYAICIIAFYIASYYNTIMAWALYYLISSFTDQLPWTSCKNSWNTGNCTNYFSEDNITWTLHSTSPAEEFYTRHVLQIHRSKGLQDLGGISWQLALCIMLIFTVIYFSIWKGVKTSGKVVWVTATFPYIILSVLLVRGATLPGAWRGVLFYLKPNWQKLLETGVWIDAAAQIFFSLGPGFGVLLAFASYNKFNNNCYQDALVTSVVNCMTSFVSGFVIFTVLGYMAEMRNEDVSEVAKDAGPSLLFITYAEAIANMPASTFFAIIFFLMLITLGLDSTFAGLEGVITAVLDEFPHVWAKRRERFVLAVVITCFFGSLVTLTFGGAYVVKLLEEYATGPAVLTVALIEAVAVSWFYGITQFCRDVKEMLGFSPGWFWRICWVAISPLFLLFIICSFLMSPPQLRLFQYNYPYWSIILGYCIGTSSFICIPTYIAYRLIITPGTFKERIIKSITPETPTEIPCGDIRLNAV

Among the data in PMC5773950 (British Journal of Pharmacology, 2018) are IC50 and Ki values, retold here.

For Buprenorphine, the half-maximal inhibitory concentration (IC50) at human DAT, at human NET and on human SERT was > 100 µM each time. Besides, the inhibition constant Ki is > 13 µM at 5‐HT2A receptor and > 17 µM at 5‐HT1A receptor.
